Apparent affinities of Ab-14 variants for a coronavirus HR2 peptide

Values reported by Engelhart et al. 2022, doi:10.1038/s41597-022-01779-4 (FLAb copy).

All variants were tested on one target, the spike HR2 peptide PDVDLGDISGINAS (SARS-CoV-2).

Each scFv is VH, three GGGGS repeats, VL, as in the parent Ab-14, and differs from it in the CDRs of the heavy chain only.
VH: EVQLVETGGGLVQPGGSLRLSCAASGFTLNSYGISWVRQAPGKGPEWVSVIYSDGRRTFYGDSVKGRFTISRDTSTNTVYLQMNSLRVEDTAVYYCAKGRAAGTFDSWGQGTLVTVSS
VL: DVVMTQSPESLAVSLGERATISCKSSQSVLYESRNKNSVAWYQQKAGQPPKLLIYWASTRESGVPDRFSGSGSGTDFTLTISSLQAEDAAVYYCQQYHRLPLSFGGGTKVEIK

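Phage display of a naive human antibody library on the peptide gave the parent. The library (AAYL49) carries one to three amino acid substitutions per variant, with no insertions or deletions. Affinity was read by AlphaSeq, a pooled yeast mating assay with surface-displayed partners. After mating in shaken culture at 30 °C for 16 h, diploids were selected and their barcode pairs sequenced. A regression on co-assayed BCL2-family reference pairs converts the normalised counts of each replicate to an apparent Kd. Each pool was mated in three replicate cultures.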

Positions count from residue 1 of the parent VH; Y60R puts R in place of Y. Values are log10 of the apparent Kd in nM; lower means stronger binding. The mean shown is taken over the replicates in which the pair was detected. "nd" means that the variant was in the library but no mating with the target was seen in that replicate; the authors take this as a sign of poor binding, and no number exists. Background: pairings of library AAYL49 with three empty control strains gave a value in 15% of cases (median 4.06, 5th percentile 2.83). Values in that range, when seen in few replicates, are hard to tell from nonspecific mating. For each scFv, signals with the empty controls are counted beside the result, with their mean in brackets.

| changes | log10 Kd, replicates | mean, log10 nM | empty controls |
|---|---|---|---|
| Y60R+G99S+A101T | nd / nd / nd | nd | 2/9 (3.47) |
| D54E+A102G+S107G | nd / nd / nd | nd | 0/9 |
| T58N+D62Q+G103M | nd / nd / nd | nd | 1/9 (3.42) |
| F27A+Y60G+K65C | nd / 2.57 / nd | 2.57 | 0/9 |
| S35D+Y60R+K65D | nd / nd / nd | nd | 2/9 (4.22) |
| F27N+R57C+D106L | nd / 3.28 / nd | 3.28 | 0/9 |
| V50K+T58H+K65R | nd / nd / nd | nd | 0/9 |
| T28K+A101Q+T104Y | 4.09 / 4.57 / 4.14 | 4.27 | 6/9 (4.65) |
| N30L+A102W+S107P | 4.07 / nd / nd | 4.07 | 1/9 (3.34) |
| S31W+T58C+T104R | nd / nd / 3.37 | 3.37 | 0/9 |
| I34N+R57K+D106R | nd / nd / nd | nd | 0/9 |
| V50R+G99S+F105R | nd / nd / nd | nd | 1/9 (4.29) |
| Y60K+G61F+D106Q | nd / nd / nd | nd | 0/9 |
| F27H+V64H+A102P | nd / nd / nd | nd | 0/9 |
| R56E+F59Y+S107P | nd / nd / nd | nd | 0/9 |
| N30Y+V50N+V64Q | 3.93 / nd / nd | 3.93 | 0/9 |
| F59P+D62I+T104A | nd / nd / nd | nd | 1/9 (3.60) |
| S35P+R100H+T104N | nd / nd / nd | nd | 1/9 (2.86) |
| S31I+T104K+F105A | nd / nd / nd | nd | 6/9 (3.54) |
| S35F+T104D+S107C | nd / nd / nd | nd | 0/9 |
| S53T+D54W+G99K | nd / nd / nd | nd | 0/9 |
| Y32K+S35A+K65N | nd / nd / nd | nd | 1/9 (4.14) |
| V50P+I51Y+G99W | nd / nd / nd | nd | 0/9 |
| S31T+S35P+G99I | nd / nd / nd | nd | 0/9 |
| R57A+F59P+S63E | nd / 3.63 / nd | 3.63 | 1/9 (4.99) |

Further variants, results first:

| log10 Kd, replicates | mean, log10 nM | empty controls | changes |
|---|---|---|---|
| nd / nd / nd | nd | 1/9 (2.66) | T28K+N30V+G33Y |
| nd / nd / nd | nd | 2/9 (4.26) | N30Y+G103M+T104H |
| nd / nd / nd | nd | 0/9 | R56S+F105R |
| nd / 4.32 / 4.94 | 4.63 | 5/9 (4.93) | Y60G+V64S+D106T |
| nd / nd / nd | nd | 0/9 | F27M+S31H+V50G |
| nd / 4.88 / nd | 4.88 | 3/9 (3.75) | Y60G+G61W+R100L |
| nd / nd / nd | nd | 2/9 (3.90) | G61I+F105C+S107T |
| nd / nd / nd | nd | 2/9 (3.24) | L29G+S31L+Y32M |
| nd / nd / 5.29 | 5.29 | 1/9 (2.96) | L29M+F105Q |
| 0.96 / 0.64 / 0.92 | 0.84 | 0/9 | T28S+K65N+S107I |
| 2.22 / 2.08 / 2.19 | 2.16 | 3/9 (5.09) | Y52F+R100N+S107L |
| nd / nd / nd | nd | 1/9 (4.76) | S53M+R56I+K65V |
| nd / nd / nd | nd | 0/9 | G26P+Y52H+R100C |
| nd / nd / nd | nd | 2/9 (3.05) | N30R+S31F+G99M |
| 2.60 / 2.39 / 2.37 | 2.45 | 1/9 (4.46) | S63H+F105Q |
| 4.55 / 4.06 / 5.15 | 4.59 | 7/9 (4.91) | F27A+I51G+D62A |
| 3.87 / nd / 3.97 | 3.92 | 3/9 (3.44) | V50S+G55A+V64R |
| nd / 2.26 / 2.33 | 2.29 | 0/9 | G61P+G103I+D106P |
| nd / nd / nd | nd | 0/9 | S53I+Y60H+V64T |
| nd / nd / nd | nd | 0/9 | R57T+T104L+S107C |
| nd / nd / nd | nd | 0/9 | L29D+D54E+V64H |
| nd / nd / 5.78 | 5.78 | 1/9 (4.37) | Y52N+R57S+K65F |
| 4.81 / 4.52 / nd | 4.67 | 3/9 (4.47) | S53K+D54W |
| nd / nd / nd | nd | 1/9 (3.83) | K65R+G99L+R100K |
| nd / nd / nd | nd | 0/9 | I51V+S53K+D54G |

Repeated from above, the 5 best binders with a signal in all replicates:

| changes | log10 Kd, replicates | mean, log10 nM | empty controls |
|---|---|---|---|
| T28S+K65N+S107I | 0.96 / 0.64 / 0.92 | 0.84 | 0/9 |
| Y52F+R100N+S107L | 2.22 / 2.08 / 2.19 | 2.16 | 3/9 (5.09) |
| S63H+F105Q | 2.60 / 2.39 / 2.37 | 2.45 | 1/9 (4.46) |
| T28K+A101Q+T104Y | 4.09 / 4.57 / 4.14 | 4.27 | 6/9 (4.65) |
| F27A+I51G+D62A | 4.55 / 4.06 / 5.15 | 4.59 | 7/9 (4.91) |

Parent in this assay: reference entry 0.65, copy in this library 4.11 (one replicate of three).